Test results published in US11510911B2, “Method for prediction of susceptibility to sorafenib treatment by using SULF2 gene, and composition for treatment of cancer comprising SULF2 inhibitor” (AJOU UNIVERSITY INDUSTRY—ACADEMIC COOPERATION FOUNDATION, priority 2017, dated 2022).

System: EGFR and amphiregulin
Assay: Confocal microscopy of coexistence of EGFR and amphiregulin
Type: cell-based, Human
Conditions: 2 μM sorafenib, 72 hours

CNC(=O)c1cc(Oc2ccc(NC(=O)Nc3ccc(Cl)c(C(F)(F)F)c3)cc2)ccn1 [Sorafenib]
coexistence of EGFR and amphiregulin (SULF2-N491K cells): did not show increased coexistence | coexistence of EGFR and amphiregulin (SULF2-WT cells): increased | coexistence of EGFR and amphiregulin (vector cells): coexisted around the nucleus
